From PubChem BioAssay AID1347430 (National Center for Advancing Translational Sciences (NCATS), 2020) come the findings set out here.

SMILES strings stand for the structures. Only a part is listed here, and it is no random draw. Calls of active or inactive are those of the source. The call rests on the fitted dose curve; in most records, active means well fitted inhibition curve with a large enough effect; inconclusive means small, poorly fitted or top-dose-only effect; inactive means flat fitted curve, though single readings scatter.
On the % scale 0 is the no-effect control and ±100 the full control effect; potency means the concentration at half of the fitted maximal effect.

The assay relates to Uracil-DNA glycosylase. Nature of the assay: Primary qHTS assay for inhibitors of Activation Induced Cytidine Deaminase (AID): UDG Counterscreen signal. Further: nearly all actives have a fitted effect of over 65% in size. The note with it: FRET deamination/UDG coupled assay, UDG read, 4 h; series mostly up to 115 µM; activity change, negative = inhibition: at the top concentration. The source says:
Assay Provider (PI) Patricia Gearhart Ph.D.
National Institute on Aging
National Institute of Health (NIH), Bethesda, MD
Assay Provider (PI) Rahul Kohli Ph.D.
Perelman School of Medicine
University of Pennsylvania, Philadelphia, PA
Activation-Induced Deaminase (AID) is a cytosine deaminase which converts cytosine into uracil within stretches of ssDNA. The presence of uracil in DNA initiates a cascade of mutagenic DNA repair to introduce point mutations and DNA double strand breaks. Specific targeting of AID to the immunoglobulin heavy chain loci (Igh) promotes mutagenesis in the antibody variable region for somatic hypermutation (SHM) or switch regions leading to class switch recombination (CSR). However, AID also plays a role in accumulating unnecessary mutations across the genome. Mis-targeting of AID results in the initiation of tumor development and leads to greater drug resistance among cancer cells when continually expressed. To identify an AID inhibitor, a small molecule library will be screened in collaboration with NCATS core facility at NIH. To confirm biological function, inhibitors will be examined in an in vitro murine B-cell activation assay and subsequent secondary validation screens. Top molecules will be further screened to identify inhibitory efficacy against a wild type primary splenocytes assay. Using these approaches, we hope to identify a small molecule with great efficacy and low toxicity for use as a molecular probe to further characterize AID's intricacies, or even as a therapeutic.
A FRET based analysis of cytosine deamination, was developed to identify potential inhibitors of AID catalytic activity. This screen has two signal output, Read 1 evaluates the AID inhibition response. The second readout (Read 2) evaluates UDG response and is uses as a counterscreen to exclude false positive inhibitors. Inhibition in AID and inactivity in the UDG signal is the desired outcome for this assay.
SEQUENCE No. (e.g., 1, 2, 3, etc.); […] (e.g., Cells, Incubation, Reagent, etc.); VALUE; DESCRIPTION
1a; Reagent; 3 uL; [4/3x] 1 uM AID/2.67 U/mL UDG
1b; Reagent; 3 uL; 2 U/mL UDG
1c; Reagent; 3 uL; 1 uM AID
2a; Compound; 46 nL; Follow-up plates (0.64 uM - 10 mM)
2b; Control; 46 nL; ATA ([…] - 10 mM)
3; Time; 10 min; incubation at room temperature
5; Time; 4 hr; incubation at room temperature
6; Reagent; 4 uL; [2x] 250 mM NaOH
7; Time; 15 sec; centrifuge at 1000 rpm
8; Time; 30 min; incubation at room temperature
9a; Detection; fluorescence (Read 1: AID); EnVision (PerkinElmer) plate reader, 540 excitation and 590 emission filters
9b; Detection; fluorescence (Read 2: UDG); EnVision (PerkinElmer) plate reader, 560 excitation and 665 emission filters
NOTES (numbers refer to sequence above)
1a; Reagents were dispensed in a medium-binding black solid-bottom Greiner plates (789176F) using a BioRptr liquid dispenser. Dispense 3 uL of [4/3x] 1 uM AID (provided by Kohli lab) and [4/3x] 2 U/mL UDG (NEB M0280L) into columns 1, 2, 5 to 48.
1b; Dispense 3 uL of [4/3x] 2 U/mL UDG into column 3.
1c; Dispense 3 uL of [4/3x] 1 uM AID into column 4.
2a; Compound (7-points [uM] (0.64; 3.2; 16; 80; 400; 2,000; 10,000; 20,000) double pin-transferred (Dip Factor = 2) using the Kalypsys (Wako USA) pintool equipped with a 1536 pinhead for a final concentration range of 7.32 nM - 114 uM.
2b; 10 mM Aurintricarboxylic Acid (Sigma A1895) (ATA, 8-point, n = 2, 1:2.5 dilution in column 2) double pin-transferred (Dip Factor = 2) using the Kalypsys (Wako USA) pintool equipped with a 1536 pinhead for a [final] range of 186 nM - 114 uM.
3; Room temperature incubation.
4; Dispense 1 uL of substrate mixture from the Kohli lab [4x] […] DJC20 and [4x] 250 nM DJC23 into columns 1 to 48 .
5; Room temperature incubation.
6; Dispense 4 uL of substrate mixture [2x] 250 mM NaOH into columns 1 to 48.
7; Centrifugation step to remove bubbles.
8; Room temperature incubation
9a; Fluorescence signal (column label AID) was read using the EnVision plate reader. […]
Regarding `Cc1ccc(C(C)CCN(CCCl)CCCl)cc1` (stereo unspecified), the “activity change, negative = inhibition” value is inactive: 0.564%.
Same read-out and setting: the same measure for `O=C(NCC1(N2CCCCC2)CCCCC1)c1c[nH]c2ccccc12`: inactive: -9.32%.
The same measure, in the same setting: the same measure for `COc1ccccc1C(=O)NCC1(N2CCOCC2)CCCCC1`: inactive: 2.26%.
Turning to `O=C(NCC1(N2CCOCC2)CCCCC1)c1ccc(Cl)cc1`, the “activity change, negative = inhibition” value is inactive: -6.5%.
Consider `CC1CN(CCc2ccccc2)CCC1=O` (stereo unspecified), for which the “activity change, negative = inhibition” value is inactive: 4.42%.
The same measure, in the same setting: next, `Fc1ccc(CN2CCC(Nc3ccccc3Cl)CC2)cc1`: inactive: 5.78%; `CCCCOc1ccccc1C(=O)NCC1(N2CCOCC2)CCCCC1`: inactive: -5.91% [at 57.5 µM].
Turning to `O=C(NCC1(N2CCOCC2)CCCCC1)c1ccccc1Br`, the “activity change, negative = inhibition” value is inactive: -0.444%.
In the case of `COc1ccccc1C(=O)NCC1(N(C)C)CCCCC1`, the “activity change, negative = inhibition” value is inactive: 6.18%.
On the same count and under the same terms, next, `CCc1cc(C(=O)NCC2(N3CCOCC3)CCCCC2)sc1C`: inactive: -3.95%; `CCCOc1cccc(C(=O)NCC2(N3CCOCC3)CCCCC2)c1`: inactive: -1.98% [at 57.5 µM]; `CCOc1ccc(C(=O)NCC2(N3CCOCC3)CCCCC2)cc1`: inactive: 16%.
The same measure, in the same setting: the same measure for `Brc1ccc(NC2CCN(Cc3cccc(Br)c3)CC2)cc1`: inactive: -14.5%; for `O=C(NCC1(N2CCOCC2)CCCCC1)c1ccccc1`: inactive: 8.72%; for `O=C(NCC1(N2CCOCC2)CCCCC1)c1ccc([N+](=O)[O-])cc1`: inactive: 5.46%.
For `CC1C(=O)CCN(CCc2ccccc2)C1C` (stereo unspecified), the “activity change, negative = inhibition” value was inactive: 3.32%.
Still for that read-out and setting: next, `O=C(NCC1(N2CCOCC2)CCCCC1)c1ccccc1[N+](=O)[O-]`: inactive: -6.13%; `Cc1cc(NC2CCN(Cc3ccccc3)CC2)ccc1Br`: inactive: -7.54%; `COc1cc(C(=O)NCC2(N3CCOCC3)CCCCC2)cc(OC)c1OC`: inactive: 8.69%.
The same measure, in the same setting: next, `CCCOc1ccc(C(=O)NCC2(N(C)C)CCCCC2)cc1`: inactive: -6.49%.
For `CC(C)(C)c1ccc(C(=O)NCC2(N3CCOCC3)CCCCC2)cc1`, the “activity change, negative = inhibition” value is inactive: -18.3%.
The same measure, in the same setting: the same measure for `CC1CN(CCc2ccccc2)C(C)CC1=O` (stereo unspecified): inactive: 6.67%; for `Cc1ccccc1C(=O)NCC1(N(C)C)CCCCC1`: inactive: -0.638%.
As to `Clc1ccccc1CN1CCC(Nc2ccc(Br)cc2)CC1`, the Potency was active: 89.1 µM.
On to `CN(C)C1(CNC(=O)c2cc3c(s2)CCC3)CCCCC1`, for which the “activity change, negative = inhibition” value is inactive: -10.6%.
The same measure, in the same setting: the same measure for `CN(C)C1(CNC(=O)c2ccc(C(C)(C)C)cc2)CCCCC1`: inactive: -1.77%.
